## OPERA 2.9 data: Henry's law constant values

Values as listed in the OPERA 2.9 repository of K. Mansouri.

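The numbers are reported measurements, compiled and curated for the OPERA QSAR suite. One number stands for a compound and property, with no spread given. How each value was measured is not recorded, so precision varies. A value may pool stereoisomers or salt forms, and the file does not say which form was measured. Unmarked limits or estimates from the upstream databases cannot be ruled out.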

Henry's law constant (air-water partitioning) is log10 of atm·m3/mol, nominally at 25 °C.

structure (SMILES),Henry's law constant (log10 atm·m3/mol)
FC(F)(F)C(=NOCC1OCCO1)c1ccc(Cl)cc1,-5.412
CC(=O)Nc1cc(NS(=O)(=O)C(F)(F)F)c(C)cc1C,-6.77
NS(=O)(=O)c1cccs1,-10.68
NC(N)=S,-8.703
Cc1nn(C)c(OCC(=O)c2ccccc2)c1C(=O)c1ccc(Cl)cc1Cl,-9.673
CC1(C)Oc2cccc(O)c2O1,-8.298
C#CCOc1cc(-n2nc(C(C)(C)C)oc2=O)c(Cl)cc1Cl,-8.047
CC(=O)CC(c1ccccc1)c1c(O)c2ccccc2oc1=O (centres undefined),-7.462
COC(=O)c1ccccc1S(=O)(=O)NC(=O)Nc1nc(OC(F)F)cc(OC(F)F)n1,-6.404
CCN(CC)C(=O)SCc1ccccc1Cl,-5.882
O=C1NC(=O)c2ccccc21,-7.964
CCCCCC(C)OC(=O)COc1ccc(Cl)c2cccnc12 (centres undefined),-7.526
CCCCCCCC/C=C\CCCCCCCCCCCCC,-10.28
CC=CCCCCC,-0.144
O=C(O)c1c(Cl)ccc(Cl)c1Cl,-7.673
O=C(O)c1ccc(F)c(Oc2ccccc2)c1,-8.218
CCCN(CCC)C(=O)SCC,-10.31
CN(C)C(=O)SCCCCOc1ccccc1,-7.86
Nc1c(Cl)c(F)[nH]c(=O)c1Cl,-6.964
CCNc1nc(N)nc(Cl)n1,-9.824
O=C(O)COc1ccc(Cl)cc1CO,-5.949
CCOC(=O)C1=NN(c2ccc(Cl)cc2Cl)C(C)(C(=O)OCC)C1 (centres undefined),-8.599
CCOc1ccc(NC(=O)OC(C)C)cc1OCC,-9.046
O=C(OCc1ccccc1)c1sc(Cl)nc1C(F)(F)F,-6.606
CCC(C)c1cnccn1 (centres undefined),-5.31
CCOC(=O)[C@@H](C)Oc1ccc(Oc2cnc3cc(Cl)ccc3n2)cc1,-9.18
COc1cc(OC)nc(NC(=O)NS(=O)(=O)N(C)S(C)(=O)=O)n1,-8.288
CCCCCCCCC=CCCCCCCCC(=O)O,-4.349
CC[C@H]1O[C@]2(CC[C@@H]1C)C[C@@H]1C[C@@H](CC=C(C)C[C@@H](C)C=CC=C3CO[C@@H]4[C@H](O)C(C)=C[C@@H](C(=O)O1)[C@]34O)O2,-6.594
CN1CCC[C@H]1c1cccnc1,-8.051
CCOC(=O)c1nc(C(Cl)(Cl)Cl)n(-c2ccc(Cl)cc2Cl)n1,-8.405
CC(Oc1ccc(Oc2cnc3cc(Cl)ccc3n2)cc1)C(=O)OCC1CCCO1 (centres undefined),-8.051
CCCCCCCCCCCCCCCCCC(=O)Cl,-6.323
CCCCC(CC)CN (centres undefined),-4.021
Cc1cccc(C)c1N(C(=O)CCl)C1CCOC1=O (centres undefined),-9.415

6 of these entries, quoted again:

structure (SMILES)	Henry's law constant (log10 atm·m3/mol)
CC1(C)Oc2cccc(O)c2O1	-8.298
O=C(O)c1ccc(F)c(Oc2ccccc2)c1	-8.218
NS(=O)(=O)c1cccs1	-10.68
CCN(CC)C(=O)SCc1ccccc1Cl	-5.882
CCCCCCCCC=CCCCCCCCC(=O)O	-4.349
FC(F)(F)C(=NOCC1OCCO1)c1ccc(Cl)cc1	-5.412